Laboratory results reported in patent US7109202B2, “Aminothaizoles and their use as adenosine receptor antagonists” (Novartis AG, priority 2000, dated 2006).

The chains behind the UniProt entries cited, without tags or fusion partners.
UniProt P0DMS8, whole entry: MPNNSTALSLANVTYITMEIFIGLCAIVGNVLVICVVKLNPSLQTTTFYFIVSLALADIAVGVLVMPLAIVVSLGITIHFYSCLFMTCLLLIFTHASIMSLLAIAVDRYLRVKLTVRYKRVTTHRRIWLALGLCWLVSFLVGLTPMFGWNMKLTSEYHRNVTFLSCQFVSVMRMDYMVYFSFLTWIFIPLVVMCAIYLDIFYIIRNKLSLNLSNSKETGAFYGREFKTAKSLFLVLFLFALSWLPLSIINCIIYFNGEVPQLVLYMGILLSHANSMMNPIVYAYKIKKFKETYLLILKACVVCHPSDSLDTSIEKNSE
UniProt P29275, whole entry: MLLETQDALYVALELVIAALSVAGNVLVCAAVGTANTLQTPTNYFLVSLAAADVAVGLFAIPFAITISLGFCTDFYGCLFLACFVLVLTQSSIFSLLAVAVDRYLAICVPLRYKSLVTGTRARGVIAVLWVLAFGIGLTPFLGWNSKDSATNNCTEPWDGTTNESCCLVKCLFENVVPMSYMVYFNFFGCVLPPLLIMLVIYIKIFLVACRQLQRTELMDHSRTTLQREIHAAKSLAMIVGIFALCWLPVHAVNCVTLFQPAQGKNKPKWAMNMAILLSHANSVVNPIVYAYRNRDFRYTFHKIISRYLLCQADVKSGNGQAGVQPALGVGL

Columns and labels:
adenosine A3 receptor = adenosine A3 receptor (Homo sapiens, UniProt P0DMS8); conditions: read-out: KI value in adenosine A3 receptor assay; assay as described in WO 99/64418
[1] = molecular target: human adenosine A2b receptor (Homo sapiens, UniProt P29275); assay: Adenosine A2b receptor reporter gene assay (luciferase, CHO-A2b cells); conditions: read-out: KB value in the reporter gene assay; CHO cells transfected with human A2b receptor and pCRE-LUCI; NECA as agonist; KB from shift of the curve at 100 nM or 1 μM antagonist

| SMILES | Ki (adenosine A3 receptor) [nM] | Kb [1] [nM] |
| --- | --- | --- |
| Fc1cccc(-c2nc(Nc3ccncc3)sc2-n2cncn2)c1 | 22 | – |
| N#Cc1cccc(-c2nc(Nc3ccncc3)sc2-n2ccnc2)c1 | – | 26.5 |
| Cc1ccc(C(=O)Nc2nc(-c3cccc(C#N)c3)c(-n3cncn3)s2)s1 | – | 24 |
| COc1cccc(Nc2nc(-c3cccc(C#N)c3)c(-n3cncn3)s2)n1 | 11.5 | – |
